Source: publication PMC9937529, “Mechanism of activation and biased signaling in complement receptor C5aR1” (Cell Research, 2023)

Experiments:
Format in all cases: cell-based
C5aR1 E1995.35A = molecular target: T1, C5aR1 E1995.35A (Homo sapiens, UniProt P21730, E199A); test: BRET β-arrestin 2 recruitment; conditions: HEK293, BRET, mean±SEM, n=3, read-out: EC50, β-arrestin2 recruitment
T1 construct: expressed in transfected cells; host or cells: HEK293
T1 sequence (P21730 1-350 E199A): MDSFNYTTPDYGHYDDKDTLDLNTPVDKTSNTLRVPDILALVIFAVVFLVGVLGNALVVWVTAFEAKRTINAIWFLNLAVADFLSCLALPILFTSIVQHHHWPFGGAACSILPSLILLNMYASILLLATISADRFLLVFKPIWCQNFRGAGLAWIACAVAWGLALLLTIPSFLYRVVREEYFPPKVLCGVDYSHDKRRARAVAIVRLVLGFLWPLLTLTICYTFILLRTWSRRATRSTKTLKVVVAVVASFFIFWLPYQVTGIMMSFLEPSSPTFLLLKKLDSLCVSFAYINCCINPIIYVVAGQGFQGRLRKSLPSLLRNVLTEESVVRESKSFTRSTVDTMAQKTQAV
Method: (§1) The C5a-mediated β-arrestin 2 recruitment to C5aR1 and C5aR2, respectively, was measured using BRET-based assay as previously described.[36],[61],[62] Briefly, HEK293 cells were transiently transfected with C5aR1-Nluc and mVenus-β-arrestin 2 or C5aR2-mVenus and Nluc-β-arrestin 2 constructs using PEI transfection reagent (YEASEN, 40816ES02) according to the manufacturer’s instruction. At 24 h post transfection, the cells were gently detached and seeded (100,000/well) onto 96-well white plates in DMEM containing 5% FBS. On the next day, cells were washed once with Phosphate Buffered Saline (PBS) and incubated in HBSS containing 20 mM HEPES, pH 7.4, with coelenterazine h (5 μM, YEASEN, 40906ES02) for 1 h (37 °C, 5% CO2). The baseline BRET light emissions (460–485 nm and 520–545 nm) were monitored by the Synergy H1 microplate reader (BioTek). After the incubation of different diluted concentrations of agonist with or without antagonist for 10 min, the second BRET light emissions were measured and the ligand-induced BRET ratio was calculated by subtracting the acceptor (mVenus, 520–545 nm) over donor (Nluc, 460–485 nm) emission ratio of the vehicle-treated wells from that of the ligand-treated wells. We carried out the nonlinear regression (curve fit) dose-response function in GraphPad Prism 7 to yield the values of Emax and EC50.

C5aR1 I912.59A = molecular target: T2, C5aR1 I912.59A (Homo sapiens, UniProt P21730, I91A); test: BRET β-arrestin 2 recruitment; conditions: HEK293, BRET, mean±SEM, n=3, Table S3, read-out: EC50, β-arrestin2 recruitment
T2 construct: expressed in transfected cells; host or cells: HEK293
T2 sequence (P21730 1-350 I91A): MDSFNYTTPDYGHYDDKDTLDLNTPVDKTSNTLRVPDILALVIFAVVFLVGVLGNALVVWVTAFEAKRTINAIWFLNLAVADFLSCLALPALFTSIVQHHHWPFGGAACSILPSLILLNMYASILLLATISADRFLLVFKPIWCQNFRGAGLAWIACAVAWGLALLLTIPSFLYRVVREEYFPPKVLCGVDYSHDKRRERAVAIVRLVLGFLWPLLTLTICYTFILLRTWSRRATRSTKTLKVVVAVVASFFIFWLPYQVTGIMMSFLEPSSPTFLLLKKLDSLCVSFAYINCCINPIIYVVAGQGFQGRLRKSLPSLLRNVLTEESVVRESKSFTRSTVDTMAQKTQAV
Method: as §1

C5aR1-WT = molecular target: T3, C5aR1-WT (Homo sapiens, UniProt P21730); test: BRET assay measuring β-arrestin 2 recruitment; conditions: HEK293, BRET, mean±SEM
T3 construct: expressed in transfected cells; host or cells: HEK293
T3 sequence (P21730 1-350): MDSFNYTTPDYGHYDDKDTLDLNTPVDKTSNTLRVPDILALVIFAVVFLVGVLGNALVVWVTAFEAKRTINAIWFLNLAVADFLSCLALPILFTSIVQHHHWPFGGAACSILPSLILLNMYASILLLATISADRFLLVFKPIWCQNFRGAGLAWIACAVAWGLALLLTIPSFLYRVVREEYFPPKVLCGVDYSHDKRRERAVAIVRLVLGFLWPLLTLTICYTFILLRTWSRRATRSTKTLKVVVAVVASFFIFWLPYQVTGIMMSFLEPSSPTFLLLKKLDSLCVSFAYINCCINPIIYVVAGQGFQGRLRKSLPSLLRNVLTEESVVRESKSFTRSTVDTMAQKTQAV
Method: (§2) Briefly, HEK293 cells were transiently transfected with C5aR1-Nluc and mVenus-β-arrestin 2 or C5aR2-mVenus and Nluc-β-arrestin 2 constructs using PEI transfection reagent (YEASEN, 40816ES02) according to the manufacturer’s instruction. At 24 h post transfection, the cells were gently detached and seeded (100,000/well) onto 96-well white plates in DMEM containing 5% FBS. On the next day, cells were washed once with Phosphate Buffered Saline (PBS) and incubated in HBSS containing 20 mM HEPES, pH 7.4, with coelenterazine h (5 μM, YEASEN, 40906ES02) for 1 h (37 °C, 5% CO2). […] We carried out the nonlinear regression (curve fit) dose-response function in GraphPad Prism 7 to yield the values of Emax and EC50.

C5aR1 W102ECL1A = molecular target: T4, C5aR1 W102ECL1A (Homo sapiens, UniProt P21730, W102A); test: BRET β-arrestin 2 recruitment; conditions: HEK293, BRET, mean±SEM, n=3, Table S3, read-out: EC50, β-arrestin2 recruitment
T4 construct: expressed in transfected cells; host or cells: HEK293
T4 sequence (P21730 1-350 W102A): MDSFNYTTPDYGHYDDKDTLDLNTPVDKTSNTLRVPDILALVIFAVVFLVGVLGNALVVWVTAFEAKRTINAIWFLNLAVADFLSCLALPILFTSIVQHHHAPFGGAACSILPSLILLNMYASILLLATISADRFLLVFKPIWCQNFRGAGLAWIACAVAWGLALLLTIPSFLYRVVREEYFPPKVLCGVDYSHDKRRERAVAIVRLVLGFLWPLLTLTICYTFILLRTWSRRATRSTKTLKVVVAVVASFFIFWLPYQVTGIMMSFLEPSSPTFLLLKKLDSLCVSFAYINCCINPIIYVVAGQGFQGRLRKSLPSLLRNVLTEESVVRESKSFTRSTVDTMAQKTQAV
Method: as §2

C5aR1 wild type = molecular target: T5, C5aR1 wild type (Homo sapiens, UniProt P21730); test: BRET-based Gαi1–γ2 dissociation assay (G protein signaling); conditions: HEK293, Gi protein dissociation assay (Fig. S10a), ligand 10 min, mean±SEM, n=3
T5 construct: expressed in transfected cells; host or cells: HEK293
T5 sequence (P21730 1-350): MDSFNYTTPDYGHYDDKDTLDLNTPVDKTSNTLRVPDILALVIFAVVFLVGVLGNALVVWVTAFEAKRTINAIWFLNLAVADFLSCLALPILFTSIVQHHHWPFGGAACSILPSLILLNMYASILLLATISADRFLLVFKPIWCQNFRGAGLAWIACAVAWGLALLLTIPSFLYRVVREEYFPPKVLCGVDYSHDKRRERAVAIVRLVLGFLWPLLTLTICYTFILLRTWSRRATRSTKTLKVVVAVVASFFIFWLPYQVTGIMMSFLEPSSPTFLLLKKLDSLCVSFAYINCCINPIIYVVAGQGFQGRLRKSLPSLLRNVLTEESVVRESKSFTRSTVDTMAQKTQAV
Method: The activation of C5aR1 induced by ligands was measured through BRET-based Gαi1 dissociation from Gβ1γ2 as previously described.[60] HEK293 cells were plated in 6-well plates containing 600,000–800,000 cells per well and cultured 24 h at 37 °C in cell incubator. […] After transfection for 24 h, cells were harvested and dispensed into 96-well white plates and allowed to culture overnight. […] Next, prepared ligands were added into cells for 10 min and the second BRET signal was measured. […] Data were analyzed using a simulation dose-response in GraphPad Prism 7.

B1: C5a: 74-amino-acid complement fragment, endogenous agonist; recombinant human C5a, free cysteine replaced by arginine (protein)
chain: TLQKKIEEIAAKYKHSVVKKCCYDGARVNNDETCEQRAARISLGPRCIKAFTECCVVASQLRANISHKDMQLGR
modifications: three intramolecular disulfides; non-glycosylated (E. coli); Trx-His6 tag removed with TEV
EC50 (C5aR1 E1995.35A): 38.3 ± 7.94 nM | EC50 (C5aR1 I912.59A): 23.8 ± 4.36 nM | EC50 (C5aR1-WT; C5aR1-WT, agonist 10 min, n=6, Table S3, read-out: EC50, β-arrestin2 recruitment): 14.8 ± 2.76 nM | EC50 (C5aR1-WT; C5aR1 wild type, n=3, Table S5, read-out: EC50, β-arrestin2 recruitment): 40 ± 10 nM | EC50 (C5aR1 W102ECL1A): 51.5 ± 18.3 nM | EC50 (C5aR1 wild type): 3.67 ± 0.46 nM

Where two headings read alike, the source gives them in different places.
